From US12319685B2

Sequences of proteins named here, by UniProt entry; tags and fusion partners are left off. Residues count along the entry.
UniProt Q96P20, 1-93 limits assumed: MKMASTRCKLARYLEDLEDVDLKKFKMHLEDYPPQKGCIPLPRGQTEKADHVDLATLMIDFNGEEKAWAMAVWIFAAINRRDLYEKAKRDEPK
UniProt Q9ULZ3, 1-91 limits assumed: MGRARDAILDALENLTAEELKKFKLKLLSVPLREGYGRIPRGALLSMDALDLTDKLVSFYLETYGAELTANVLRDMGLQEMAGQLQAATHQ

What was measured:
[1] = molecular target: NLRP3^PYD/fSAH-POP1-12 PPI (Homo sapiens, UniProt Q96P20); experiment: FP competitive inhibition assay, NLRP3^PYD/fSAH-POP1-12 PPI; conditions: read-out: Ki to disrupt the NLRP3^PYD/fSAH-POP1-12 PPI; 3 μM human NLRP3, 5 nM fluorescein-labeled fSAH-POP1-12, 1% DMSO; Ki derived from IC50
Method: (§1) FP Competitive Inhibition Assays: All the tested compounds were prepared as 10 mM DMSO stocks. In the primary screen, the concentrations of the compounds and DMSO were set to 50 μM and 1% (v/v). In the FP competitive inhibition assay, 3 μM human NLRP3 and 5 nM of N-terminally fluorescein-labeled fSAH-POP1-12 were incubated in an assay buffer of 25 mM Hepes (pH 7.4), 100 μg/mL of bovine γ-globulin, and 0.01% Triton-X100 for 15 min at 4° C. Bovine γ-globulin and Triton-X100 were included in the assay buffer to decrease the likelihood of compound acting by aggregate formation and nonspecific binding. Different concentrations of the tested compounds in the assay buffer were added to each test plate to make a final volume of 100 μL. Each assay plate was covered black and gently mixed on an orbital shaker at 4° C. for 1.5 h to reach equilibrium before the polarization values were read. The IC50 value was determined by nonlinear least-square analysis of GraphPad Prism 5.0. The Ki values were derived (Nikolovska-Coleska et al., 2004). Experiments were performed in triplicate and carried out in the presence of 1% DMSO.

[2] = molecular target: GST-ASC^PYD/fSAH-POP1-12 PPI (Homo sapiens, UniProt Q9ULZ3); experiment: FP competitive inhibition assay, GST-ASC^PYD/fSAH-POP1-12 PPI
Method: as §1

Ki [1]: 1.5 µM
effect on GST-ASC^PYD/fSAH-POP1-12 PPI [2]: no effect
Structure (SMILES): CCOC(=O)c1cc2c([nH]c3ccccc32)c(C(N)=O)n1
